## Measured affinities in a library of Ab-14 light chain variants

Antigen: PDVDLGDISGINAS, a 14-residue peptide of the SARS-CoV-2 spike HR2 region.

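The starting antibody came from a phage panning campaign against this peptide. Library AAYL50 holds single substitutions and randomly drawn double and triple substitutions in the CDRs. AlphaSeq pools MATa yeast showing the antibodies with MATalpha yeast showing the peptide. Binding brings cells together so that they mate, and sequencing counts the barcode pairs among the diploids. Scores were corrected for input abundance and mapped to Kd with protein pairs of known affinity run in the same pool. There are three technical replicates.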

Ab-14 is the parent antibody, in scFv form: VH, then a (GGGGS)3 linker, then VL. The heavy chain is unchanged in all variants.
VH: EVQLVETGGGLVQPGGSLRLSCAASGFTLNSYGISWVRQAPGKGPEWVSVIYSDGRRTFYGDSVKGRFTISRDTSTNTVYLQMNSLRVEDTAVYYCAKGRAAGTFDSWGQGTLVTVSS
VL: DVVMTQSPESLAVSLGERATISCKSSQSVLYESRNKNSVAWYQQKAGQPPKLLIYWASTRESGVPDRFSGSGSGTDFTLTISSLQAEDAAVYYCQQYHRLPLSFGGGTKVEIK

Changes read parent residue, position, new residue, counted from the first residue of the VL shown.
All variants listed here change L30 of the VL, counted from its first residue.
Numbers give log10(Kd / nM), so 0 is 1 nM and 3 is 1 µM. Smaller is tighter.
Averages over replicates are reported, and they cover detected replicates only.
An entry "nd" has no value in the source: the pair was not observed among the diploids in any replicate. This suggests poor binding but is not conclusive.

- L30P W56D E61N: 0.62 (3 of 3 replicates; controls 6 of 9)
- S26L Q27M L30W: 1.80 (1 of 3 replicates; controls 0 of 9)
- L30E N37W A40V: nd (0 of 3 replicates; controls 0 of 9)
- L30G R34S Y97P: 0.12 (3 of 3 replicates; controls 2 of 9)
- L30G V39G H98E: nd (0 of 3 replicates; controls 0 of 9)
- S26T L30R A40P: nd (0 of 3 replicates; controls 1 of 9)
- L30A W56P: 5.29 (2 of 3 replicates; controls 4 of 9)
- L30M S33W Q95H: 2.91 (3 of 3 replicates; controls 0 of 9)
- L30P T59I E61I: nd (0 of 3 replicates; controls 2 of 9)
- L30C S58C S103N: 5.67 (1 of 3 replicates; controls 0 of 9)
- L30Q W56A Q95F: 5.69 (2 of 3 replicates; controls 4 of 9)
- S25Y L30Q R99A: 0.68 (3 of 3 replicates; controls 1 of 9)
- K24N L30H N37R: 1.69 (3 of 3 replicates; controls 4 of 9)
- S26H L30N N35C: 4.30 (3 of 3 replicates; controls 2 of 9)
- L30T R34Q S58K: 1.29 (3 of 3 replicates; controls 1 of 9)
- L30P N35F H98I: 2.93 (1 of 3 replicates; controls 0 of 9)
- L30P H98G R99F: 1.79 (3 of 3 replicates; controls 0 of 9)
- Q27P L30D Y97N: nd (0 of 3 replicates; controls 2 of 9)
- L30C P101M S103A: 1.53 (3 of 3 replicates; controls 0 of 9)
- L30Y E32N Q96F: 1.65 (3 of 3 replicates; controls 1 of 9)
- L30G K36S H98W: 0.74 (3 of 3 replicates; controls 3 of 9)
- L30I R60F S62V: 4.08 (1 of 3 replicates; controls 1 of 9)
- L30Y: 0.77 (3 of 3 replicates; controls 1 of 9)
- S25L L30C: 0.32 (3 of 3 replicates; controls 5 of 9)
- L30T S33L A57W: nd (0 of 3 replicates; controls 1 of 9)
- Q27K L30W N35P: 1.52 (3 of 3 replicates; controls 3 of 9)
- L30N E32A N35A: nd (0 of 3 replicates; controls 0 of 9)
- S25W L30A Y97N: 2.26 (1 of 3 replicates; controls 0 of 9)
- L30W E61P L100E: 3.63 (3 of 3 replicates; controls 5 of 9)
- L30E S38D S62E: 1.84 (3 of 3 replicates; controls 4 of 9)
- K24V L30T Q95R: 4.21 (2 of 3 replicates; controls 0 of 9)
- V29I L30A T59F: 1.42 (3 of 3 replicates; controls 1 of 9)
- L30V V39W S58P: 4.29 (1 of 3 replicates; controls 1 of 9)
- L30E E32T E61K: 2.99 (1 of 3 replicates; controls 0 of 9)
- L30E S58H Q95A: 2.09 (3 of 3 replicates; controls 6 of 9)
- L30C P101S L102Y: 1.04 (3 of 3 replicates; controls 1 of 9)
- L30G: 1.32 (3 of 3 replicates; controls 3 of 9)
- L30S S103Q: 0.47 (3 of 3 replicates; controls 1 of 9)
- S25Y L30W L102V: 0.81 (3 of 3 replicates; controls 0 of 9)
- L30T V39W L100K: nd (0 of 3 replicates; controls 6 of 9)
- L30Y A57L R99V: 3.19 (1 of 3 replicates; controls 0 of 9)
- L30H A40N R60M: 4.84 (2 of 3 replicates; controls 4 of 9)

The opening 5 entries, copied out:

| changes | mean log10 Kd (nM) | seen in | signal with controls |
|---|---|---|---|
| L30P W56D E61N | 0.62 | 3/3 | 6/9 |
| S26L Q27M L30W | 1.80 | 1/3 | 0/9 |
| L30E N37W A40V | nd | 0/3 | 0/9 |
| L30G R34S Y97P | 0.12 | 3/3 | 2/9 |
| L30G V39G H98E | nd | 0/3 | 0/9 |

For reference, the parent read 0.65 as the reference entry and 1.68 as a member of this library.
Three control strains display no target. For library AAYL50, 18% of the pairings with them gave a signal, with a median of 4.19 and one signal in twenty below 2.99, so weak values seen in few replicates may be background. For each scFv, signals with the empty controls are counted beside the result.

Reference: Engelhart et al. 2022, doi:10.1038/s41597-022-01779-4. File: FLAb, binding data.